# Data taken from PubChem BioAssay (NCI).
#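 All cell lines were grown in 96-well plates and treated with compound for 48 hours. GI50 = concentration required for 50% inhibition of growth. At the TGI there is no net growth.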
# Assays:
# Assay in all cases: DTP human tumour cell line panel, 48 h
# [1] = system: KM12 colon
# [2] = system: SF-268 CNS
# [3] = system: HS 578T breast
# [4] = system: HCT-15 colon
# [5] = system: HOP-62 NSCLC
# [6] = system: CCRF-CEM leukemia
# [7] = system: SK-MEL-5 melanoma
# [8] = system: SNB-75 CNS
# [9] = system: SK-MEL-28 melanoma
# [10] = system: 786-0 renal
# [11] = system: SF-295 CNS
# [12] = system: A549 NSCLC
# [13] = system: OVCAR-8 ovarian
# [14] = system: A498 renal
# [15] = system: NCI-H23 lung
# [16] = system: MDA-MB-231 breast
# [17] = system: UO-31 renal
# [18] = system: SR leukemia
# [19] = system: UACC-62 melanoma
# [20] = system: HL-60(TB) leukemia
# [21] = system: MDA-MB-435
# [22] = system: MCF7 breast
# [23] = system: OVCAR-4 ovarian
# [24] = system: CAKI-1 renal
# [25] = system: HOP-92 NSCLC
# [26] = system: RPMI-8226 leukemia
# [27] = system: K-562 leukemia
# [28] = system: MDA-N
# [29] = system: NCI-H322M lung
# [30] = system: NCI/ADR-RES ovarian
# [31] = system: SK-OV-3 ovarian
# [32] = system: HT29 colon
# [33] = system: ACHN renal
# [34] = system: IGROV1 ovarian
# [35] = system: OVCAR-5 ovarian
# [36] = system: OVCAR-3 ovarian
# [37] = system: LOX IMVI melanoma
# [38] = system: EKVX NSCLC
# [39] = system: NCI-H522 lung
# [40] = system: NCI-H226 lung
# [41] = system: PC-3 prostate
# [42] = system: SNB-19 CNS
# [43] = system: HCT-116 colon
# [44] = system: MOLT-4 leukemia
# [45] = system: SW-620 colon
# [46] = system: MALME-3M melanoma
# [47] = system: U251 CNS
# [48] = system: SF-539 CNS
# [49] = system: RXF 393 renal
# [50] = system: COLO 205 colon
# [51] = system: BT-549 breast
# [52] = system: SN12C renal
# [53] = system: SK-MEL-2 melanoma
# [54] = system: DU-145 prostate
# [55] = system: M14 melanoma
# [56] = system: T-47D breast
smiles,measurement,setting,value
O=c1[nH]c2cc([N+](=O)[O-])c(N/N=C/C=C/c3ccc([N+](=O)[O-])o3)c([N+](=O)[O-])c2[nH]1,GI50,[1],5.67 µM
same,TGI,[1],19.2 µM
same,GI50,[2],17.3 µM
same,TGI,[2],> 100 µM
same,GI50,[3],21.5 µM
same,TGI,[3],83.2 µM
same,GI50,[4],10.1 µM
same,TGI,[4],> 100 µM
same,GI50,[5],10.8 µM
same,TGI,[5],23.8 µM
same,GI50,[6],1450 nM
same,TGI,[6],4.35 µM
same,GI50,[7],3.36 µM
same,TGI,[7],10.9 µM
same,GI50,[8],13.4 µM
same,TGI,[8],30 µM
same,GI50,[9],8.47 µM
same,TGI,[9],35.8 µM
same,GI50,[10],11.5 µM
same,TGI,[10],41 µM
same,GI50,[11],18.4 µM
same,TGI,[11],> 100 µM
same,GI50,[12],38.4 µM
same,TGI,[12],> 100 µM
same,GI50,[13],11.9 µM
same,TGI,[13],45.9 µM
same,GI50,[14],7.02 µM
same,TGI,[14],23.4 µM
same,GI50,[15],17.1 µM
same,TGI,[15],43.6 µM
same,GI50,[16],17.8 µM
same,TGI,[16],49.6 µM
same,GI50,[17],27.4 µM
same,TGI,[17],> 100 µM
same,GI50,[18],4.03 µM
same,TGI,[18],18 µM
same,GI50,[19],5.61 µM
same,TGI,[19],21.3 µM
same,GI50,[20],3.3 µM
same,TGI,[20],18 µM
same,GI50,[21],4.54 µM
same,TGI,[21],19.7 µM
same,GI50,[22],3.29 µM
same,TGI,[22],15.1 µM
same,GI50,[23],16.9 µM
same,TGI,[23],36.1 µM
same,GI50,[24],17.2 µM
same,TGI,[24],36.8 µM
same,GI50,[25],14.9 µM
same,TGI,[25],33.1 µM
same,GI50,[26],13.9 µM
same,TGI,[26],> 100 µM
same,GI50,[27],14.8 µM
same,TGI,[27],59.2 µM
same,GI50,[28],6.25 µM
same,TGI,[28],56.1 µM
same,GI50,[29],12.2 µM
same,TGI,[29],31.3 µM
same,GI50,[30],> 100 µM
same,TGI,[30],> 100 µM
same,GI50,[31],23.6 µM
same,TGI,[31],61.8 µM
same,GI50,[32],22.7 µM
same,TGI,[32],> 100 µM
same,GI50,[33],4.33 µM
same,TGI,[33],17.3 µM
same,GI50,[34],12.8 µM
same,TGI,[34],36.2 µM
same,GI50,[35],55.3 µM
same,TGI,[35],> 100 µM
same,GI50,[36],4.18 µM
same,TGI,[36],14.2 µM
same,GI50,[37],5.4 µM
same,TGI,[37],32.9 µM
same,GI50,[38],59 µM
same,TGI,[38],> 100 µM
same,GI50,[39],6.9 µM
same,TGI,[39],> 100 µM
same,GI50,[40],10.4 µM
same,TGI,[40],27.3 µM
same,GI50,[41],5.34 µM
same,TGI,[41],27.3 µM
same,GI50,[42],14.7 µM
same,TGI,[42],80.1 µM
same,GI50,[43],8.93 µM
same,TGI,[43],31.6 µM
same,GI50,[44],6.97 µM
same,TGI,[44],70.2 µM
same,GI50,[45],11.6 µM
same,TGI,[45],> 100 µM
same,GI50,[46],8.86 µM
same,TGI,[46],39 µM
same,GI50,[47],9.95 µM
same,TGI,[47],33.8 µM
same,GI50,[48],25.2 nM
same,TGI,[48],2390 nM
same,GI50,[49],5.73 µM
same,TGI,[49],20.1 µM
same,GI50,[50],2760 nM
same,TGI,[50],13.3 µM
same,GI50,[51],13.3 µM
same,TGI,[51],36.8 µM
same,GI50,[52],14.7 µM
same,TGI,[52],49.8 µM
same,GI50,[53],15.6 µM
same,TGI,[53],> 100 µM
same,GI50,[54],5.64 µM
same,TGI,[54],18.1 µM
same,GI50,[55],8.18 µM
same,TGI,[55],> 100 µM
same,GI50,[56],8.89 µM
same,TGI,[56],22.6 µM
